Test system: CHO-K1 cells
Assay type: cell-based, Chinese hamster
Procedure: Tests were done using Chinese hamster ovary (CHO-K1) cell cultures according to ISO10993-5:1999. The CHO-K1 cells were obtained from the American Type Culture Collection (ATCC), Manassas, Va., and were grown in F12-K medium supplemented with 10% fetal bovine serum.
Cytotoxicities of polyamines were determined as described Examples 25-35, except that 100 μL of a 10 wt % aqueous solution of each polyamine was mixed with 1 mL of culture medium, incubated for 24 h at 37° C., serially diluted, and then 100 μL of each of these solutions was added to the CHO-K1 cells. The CHO-K1 cells had previously been plated out at 50,000 cells per well in a culture plate, incubated in 100 μL of culture medium for 24 h, and decanted of medium. After incubation of CHO-K1 cells with the serially diluted polyamine solutions for 18 h at 37° C., cell viability was determined by a colorimetric assay of mitochondrial dehydrogenase-catalyzed reduction of MTT (Sigma TOX-1®; Sgouras, et al. Journal of Materials Science: Materials in Medicine 1:61-68 (1990)) and an adenylate kinase-based luminescence assay of ATP (ToxiLight®; Crouch, et al. Journal of Immunological Methods 160:81-88 (1993)).

8-arm poly(ethylene glycol) octaamine [Example 36]
CHO-K1 Cell Viability: 100

Source: US8257690B2, “Protein-based polymer tissue adhesives for medical use” (Actamax Surgical Materials, LLC, priority 2004, dated 2012)
